{"source": "patent US8598314B2", "about": "(priority 2007, dated 2013)", "test_system": "plasma carboxypeptidase", "settings": "37° C., FIG. 8", "data": [{"substance": "PYY(3-36)", "values": [{"measurement": "stability of PYY(3-36) incubated in human plasma (in words)", "value": "disappearance of PYY(3-36) and an accompanying appearance of PYY(3-35)"}]}]}
